miR122 inh: inhibitors of miR-122 in Huh7 cells | Huh7 miR-122 Renilla luciferase sensor, 48 h; neutral wells = 0, positive control = 100 | activation (reporter increase), % at 12.5 µM | 340,000 tested, 0.3% active;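 active = mean replicate activation score at least 90 and every replicate individually at or above 90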;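 also: higher luciferase means less miR-122 activity so hits act as miR-122 inhibitors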
MITF TRPM1 HTS: increases MITF-driven TRPM1 promoter luciferase signal | SK-MEL-5 TRPM1-promoter luciferase, 24 h; % of positive control, neutral wells = 0 | activation, % at 12.5 µM | 300,000 tested, 0.75% active;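 active = mean activation of at least 80% with every replicate also reaching 80%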;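 also: 0% = neutral control wells and 100% = parthenolide positive control wells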
MITF TRPM1 inh: MITF TRPM1 promoter inhibition in SK-MEL-5 cells; SK-MEL-5 TRPM1 promoter luciferase, 24 h; inhibition, % at 12.5 µM; 330,000 tested, 0.83% active;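 active = mean inhibition across replicates of 60% or more, whatever share of single replicates reaches that level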
Yeast UUG start: alters start codon recognition fidelity in yeast; AID 602363; activity score, % at 18.7 µM; 350,000 tested, 0.13% active; S. cerevisiae UUG-firefly luciferase reporter, luminescence/redox ratio;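 active means replicate mean at a twofold rise or more, about +100% in these data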;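 further: firefly luciferase made from a UUG start codon reports start codon fidelity; reporter light over untreated wells divided by growth signal over untreated wells; some hits fall short of that in this replicate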
PGC1a acetyl inh: modulators of PGC1a acetylation | U2OS PGC1a acetylation, AlphaScreen anti-acetyl-lysine; with virally co-expressed GCN5 acetyltransferase | inhibition, % at 15.6 µM | 350,000 tested, 0.17% active | AID 651687;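 active = every replicate shows inhibition of at least 40%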;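 also: 0% = neutral control wells and 100% = positive control wells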
Wnt bcat act: Wnt/beta-catenin pathway activation. Wnt/beta-catenin reporter cell assay, activator, plate reader. AID 743398. activation, % at 9.35 µM. 300,000 tested, 1.2% active; in the data active = activation above about 30%, passing the limit was not always enough;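 also: 0% = neutral control wells and 100% = positive control wells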
* marks the source's active call; other numbers are inactive results; nt = no result given; [ ] = another dose, or the depositor's remark. Shown are actives, neighbours in structure and some others; about 2.1% of the full set was active somewhere.

SMILES	miR122 inh	MITF TRPM1 HTS	MITF TRPM1 inh	Yeast UUG start	PGC1a acetyl inh	Wnt bcat act
O=C(Cc1cccnc1)N1CCCCN2[C@H](C1)[C@H](c1ccc(C#CC3CCCC3)cc1)[C@@H]2CO	-8[16.7 µM]	nt	nt	3	-1	nt
COc1ccc(-n2nnnc2C(CCc2ccccc2)N2CCC(n3c(=O)[nH]c4ccccc43)CC2)cc1 (configuration not stated)	-19	nt	nt	-13	55*	-5
CCCCn1c(=O)c(C=Nc2cccnc2Cl)c(O)n(CCCCl)c1=O	nt	-14	15	nt	nt	51*
C=CCn1c(=O)c(C=Nc2cccc([N+](=O)[O-])c2)c(O)n(CCCC)c1=O	-8	-2	1	-12	4	0
CC(NC1=NCCS1)c1ccccc1 (configuration not stated)	nt	3	-5	nt	nt	49*
CC1CN=C(NC(C)c2ccccc2)S1 (configuration not stated)	-1	1	1	-3	nt	-1
COc1ccc(C#Cc2ccc([C@H]3[C@@H](CO)N4CCCCN(C(=O)Cc5ccncc5)C[C@@H]34)cc2)cc1	23[16.7 µM]	nt	nt	6	16	nt
CCOC(=O)C(NC(=O)C(Cc1ccc(N(CCCl)CCCl)cc1)NC(C)=O)C(C)C (configuration not stated)	nt	-12	11	nt	-1	0
COC(=O)C(Cc1ccc(N(CCCl)CCCl)cc1)N=Cc1ccccc1O (configuration not stated)	nt	nt	62*	-3	nt	-8
CN(C)c1ccc(/C=C/c2cc[n+](C)c3ccccc23)cc1	-11	-82	82*	nt	5	-6
CN(C)c1ccc(/C=C/C=C/c2sc3ccccc3[n+]2C)cc1	-2	nt	63*	15	5	-8
C[n+]1c(-c2ccccc2)sc2ccccc21	0	-15	19	-9	6	12
COC(=O)C12OCC34C(CC5C(C)=C(O)C(=O)CC5(C)C3C(O)C1O)OC(=O)C(OC(=O)/C=C(\C)C(C)C)C24 (configuration not stated)	-7	nt	85*	nt	86*	-10
C/C=C/c1ccc(C2[C@H]3CNC[C@@H]2N3CC2CCCCC2)cc1 (some centres not stated)	nt	nt	nt	nt	-3	nt
C=CCN1C(=O)NC(=O)/C(=C\c2ccc(-c3ccccc3[N+](=O)[O-])o2)C1=O	nt	-26	33	nt	nt	48*
CCOCCN1CCC(OC(C)=O)C(C)C1 (configuration not stated)	0	3	2	-21	42*	-6
CC=Cc1ccc2n(c1=O)C[C@H]1[C@H](CO)[C@@H](C(=O)OC)[C@@H]2N1S(=O)(=O)c1ccccc1C (mixture of isomers)	5[16.7 µM]	nt	nt	nt	1	nt
COc1ccc(-c2cc(=NCCC(=O)O)c3cc(C)ccc3o2)cc1	-6	112*	-110	4	nt	13
COc1ccc(-c2cc(=Nc3ccccc3)c3cc(C)ccc3o2)cc1	18	46	-42	-39	-1	-6
CC[n+]1c(/C=C/N(C)c2ccccc2)sc2ccc(Cl)cc21	nt	-65	67*	-23	13	-10

One compound at a time, from the list above:
Profile of CN(C)c1ccc(/C=C/C=C/c2sc3ccccc3[n+]2C)cc1 = miR122 inh: -2; MITF TRPM1 HTS: nt; MITF TRPM1 inh: 63*; Yeast UUG start: 15; PGC1a acetyl inh: 5; Wnt bcat act: -8
Profile of COc1ccc(-c2cc(=Nc3ccccc3)c3cc(C)ccc3o2)cc1 = miR122 inh: 18; MITF TRPM1 HTS: 46; MITF TRPM1 inh: -42; Yeast UUG start: -39; PGC1a acetyl inh: -1; Wnt bcat act: -6

Compounds above that contain four or more nitrogen atoms:
SMILES	miR122 inh	MITF TRPM1 HTS	MITF TRPM1 inh	Yeast UUG start	PGC1a acetyl inh	Wnt bcat act
COc1ccc(-n2nnnc2C(CCc2ccccc2)N2CCC(n3c(=O)[nH]c4ccccc43)CC2)cc1 (configuration not stated)	-19	nt	nt	-13	55*	-5
CCCCn1c(=O)c(C=Nc2cccnc2Cl)c(O)n(CCCCl)c1=O	nt	-14	15	nt	nt	51*
C=CCn1c(=O)c(C=Nc2cccc([N+](=O)[O-])c2)c(O)n(CCCC)c1=O	-8	-2	1	-12	4	0

Next part:
SMILES	miR122 inh	MITF TRPM1 HTS	MITF TRPM1 inh	Yeast UUG start	PGC1a acetyl inh	Wnt bcat act
CC12CC[C@H]3[C@@H](CCC4(O)C[C@H](O)CCC34/C=N/NC(=O)c3ccc(O)cc3)C1(O)CCC2C1=CC(=O)OC1 (some centres not stated)	-3	12	-12	-6	3	-7
CN(C)c1ccc(C(=O)N/N=C/C23CC[C@@H](O)CC2(O)CC[C@@H]2[C@@H]3CCC3(C)C(C4=CC(=O)OC4)CCC23O)cc1 (some centres not stated)	49	-74	75*	-4	-9	-22
CCCN1[C@@H]2c3ccc(-c4cccc(OC)c4)c(=O)n3C[C@H]1[C@H](CO)[C@H]2C(=O)OC	nt	nt	nt	nt	2	nt
COc1ccc(OC(=O)N(C)C[C@@H]2OCc3ccccc3-c3c(n(C)c4ccccc34)C(=O)N([C@H](C)CO)C[C@H]2C)cc1	nt	nt	nt	nt	-38	nt
COC(=O)C[C@@H]1CC[C@H]2NC[C@@H](O)COC[C@@H]2O1	0[16.7 µM]	nt	nt	nt	-3	nt
COC(=O)c1nc(-c2ccc3c(n2)C(=O)C(N)=C(OC)C3=O)c(N)c(-c2ccc(OC)c(OC)c2O)c1C	-2	-97	100*	-6	5	0
O=C1NC(=S)NC(=O)C1=Cc1cccn1-c1ccc(O)cc1	nt	-94	94*	nt	nt	24
Cc1cc(C)cc(N2C(=O)NC(=O)/C(=C\c3cccn3-c3ccccc3)C2=O)c1	nt	-65	66*	nt	nt	10
CCCNC(=O)[C@H]1[C@H](CO)[C@H]2Cn3c(cccc3=O)[C@@H]1N2CCC	6[16.7 µM]	nt	nt	nt	nt	nt
CCC(=O)N1[C@@H]2c3ccc(C4=CCCC4)c(=O)n3C[C@H]1[C@H](CO)[C@H]2C(=O)OC	4[16.7 µM]	nt	nt	nt	nt	nt
CC1=CC2/C=C(\C)CCC(O)C(O)/C=C/C(=O)C23C(=O)NC(CC(C)C)C3C1C (configuration not stated)	-21	-97	97*	-5	40	nt
C/C1=C\[C@@H](C)C/C=C/[C@H]2[C@@H]3O[C@]3(C)[C@@H](C)[C@H]3[C@H](Cc4c[nH]c5ccccc45)NC(=O)[C@]32C(=O)/C=C/C(=O)[C@@H]1O	-16	nt	nt	17	10	nt
C[C@@H]1CN([C@H](C)CO)C(=O)c2c(c3ccccc3n2C)-c2ccccc2CO[C@@H]1CN(C)C(=O)Oc1ccccc1	nt	nt	nt	nt	-265	nt
COCC(=O)N1[C@@H]2c3ccc(C4=CCCC4)c(=O)n3C[C@H]1[C@H](CO)[C@H]2C(=O)OC	6[16.7 µM]	nt	nt	nt	-8	nt
CC(=O)C1CCC2(O)C3CCC4=CC(=O)CCC4(C)C3CCC12C (configuration not stated)	-5	-4	4	-2	nt	4
C[C@@H]1O[C@@H](O[C@@H]2C=C3CC[C@@H]4C(CC[C@]5(C)[C@@H](c6ccc(=O)oc6)CC[C@]45O)[C@@]3(C)CC2)[C@H](O)[C@H](O)[C@H]1O (some centres not stated)	-25	-82	83*	5	67*	-19
C[C@@H]1O[C@@H](O[C@@H]2C=C3CCC4C(CC[C@]5(C)[C@@H](c6ccc(=O)oc6)CC[C@]45O)[C@@]3(C)CC2)[C@H](O)[C@H](O)[C@H]1O (some centres not stated)	-21	-80	82*	-6	60*	-1

Compound activity: PubChem BioAssay, Broad Institute
